The source of these data is patent US6344324B2, “Quantification of cellular injury using expression of a fluorescent protein under the control of the GADD153 promoter” (Research Development Foundation, priority 2000, dated 2002).

In test [1] the test system is T10b45 cells. Put plainly: Clonogenic (colony-forming) assay. In kind it is cell-based, human. The settings on record: 4 hour exposure.
Test [2] concerns T10b45 cells. Put plainly: Cell cycle phase distribution (G2/M arrest) by flow cytometry.
Test [3] relates to GADD153 promoter activity in T10b45 cells. Put plainly: GADD153 promoter-driven EGFP expression in T10b45 cells by flow cytometry.
Setting [4] is: following 4 hour exposure to 20 μM.

Take N-methl-N′-nitro-N-nitrosoguanidine: the IC50 (as a rule, the concentration at which inhibition is half-maximal) in the test with T10b45 cells [1] was 1360 nM. Further, the “treated cells in G2 or M phase (maximal G2/M arrest)” value in the test with T10b45 cells [2] (2 days after 4 hour exposure to 20 μM, untreated control 23.4%) was 63.0%. Further, in the test with T10b45 cells [2] (after 4 hour exposure to 20 μM), the “perturbation of cell cycle phase distribution persisted” value is recorded as 6 days and the “perturbation of cell cycle phase distribution resolved” value was at most 8 days. Further, in test [3] (20 μM, 4 h exposure, GFP 4 days after treatment, relative to untreated control), the “Induction Ratio” value turned out to be 31. Also, the “activation of EGFP expression (in words)” value in test [3] (T10b45 cells, 4 days after the insult, conditions of maximal activation (Table 1)) is “strongly activated”. In test [3] (setting [4]), the “day GADD153-EGFP expression peaked” value came out at 6 days and the “day GADD153-EGFP expression was detectable” value was at most 2 days. The “cells falling within the gated region” value in test [3] (four days after 20 μM for 4 hour, untreated 0.12%) was determined as 3.74%. The “fluorescence of T10b45 cells, mean channel value” in test [3] (four days after 20 μM for 4 hour, untreated 4.11) was found to be 13.28.
